Laboratory results taken from ChEMBL document CHEMBL1147661, “The first potent inhibitor of mammalian group X secreted phospholipase A2: elucidation of sites for enhanced binding” (J Med Chem, 2006).

Assays:
[1] = biological target: T1, Phospholipase A2, membrane associated (Mus musculus, UniProt P31482); assay: Inhibition of mouse recombinant sPLA2 G2A
T1 sequence (P31482 whole entry): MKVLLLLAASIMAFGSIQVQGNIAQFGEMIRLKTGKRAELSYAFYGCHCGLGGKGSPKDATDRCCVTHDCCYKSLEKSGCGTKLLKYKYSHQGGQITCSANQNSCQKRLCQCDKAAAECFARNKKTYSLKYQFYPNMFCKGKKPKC

[2] = biological target: T2, Group 10 secretory phospholipase A2 (Homo sapiens, UniProt O15496); assay: Inhibition of human recombinant sPLA2 G10
T2 sequence (O15496 whole entry): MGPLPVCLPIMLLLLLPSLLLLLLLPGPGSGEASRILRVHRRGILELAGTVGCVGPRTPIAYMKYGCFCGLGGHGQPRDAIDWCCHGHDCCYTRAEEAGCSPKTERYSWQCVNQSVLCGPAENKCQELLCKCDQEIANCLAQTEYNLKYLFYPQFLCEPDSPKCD

[3] = biological target: T3, Group 10 secretory phospholipase A2 (Mus musculus, UniProt Q9QXX3); assay: Inhibition of mouse recombinant sPLA2 G10
T3 sequence (Q9QXX3 whole entry): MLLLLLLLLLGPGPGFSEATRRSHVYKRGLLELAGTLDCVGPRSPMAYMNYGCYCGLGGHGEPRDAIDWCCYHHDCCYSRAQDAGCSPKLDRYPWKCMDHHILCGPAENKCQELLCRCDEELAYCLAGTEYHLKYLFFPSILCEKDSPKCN

[4] = biological target: T4, Phospholipase A2, membrane associated (Homo sapiens, UniProt P14555); assay: Inhibition of human recombinant sPLA2 G2A
T4 sequence (P14555 whole entry): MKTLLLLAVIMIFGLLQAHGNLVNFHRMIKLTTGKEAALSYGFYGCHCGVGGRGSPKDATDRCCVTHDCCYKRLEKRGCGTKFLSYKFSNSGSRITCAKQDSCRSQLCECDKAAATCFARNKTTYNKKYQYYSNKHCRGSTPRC

Row | Structure (SMILES) | IC50 [1] | IC50 [2] | IC50 [3] | IC50 [4]
1 | CCc1c(C(=O)C(N)=O)c2c(OCC(=O)O)cc(C)cc2n1Cc1ccccc1 | 50 nM | 75 nM | 75 nM | –
2 | CCc1c(C(=O)C(N)=O)c2c(OCC(=O)O)cccc2n1Cc1ccccc1 [VARESPLADIB] | – | 75 nM | – | 125 nM
